This assay concerns the target T1, ZACN (Homo sapiens, UniProt Q401N2).
T1 sequence (Q401N2 26-412): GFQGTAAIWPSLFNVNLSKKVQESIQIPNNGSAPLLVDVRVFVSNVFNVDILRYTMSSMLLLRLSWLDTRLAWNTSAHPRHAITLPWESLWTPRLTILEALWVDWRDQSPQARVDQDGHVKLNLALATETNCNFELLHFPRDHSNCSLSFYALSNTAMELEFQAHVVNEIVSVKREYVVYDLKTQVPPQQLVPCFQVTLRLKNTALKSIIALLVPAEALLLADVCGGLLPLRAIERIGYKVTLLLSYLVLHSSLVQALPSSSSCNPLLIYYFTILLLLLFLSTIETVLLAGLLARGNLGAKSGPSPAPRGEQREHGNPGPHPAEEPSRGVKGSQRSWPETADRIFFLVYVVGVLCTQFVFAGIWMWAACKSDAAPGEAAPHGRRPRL
As to the kind of experiment: Two-electrode voltage-clamp, ZACN expressed in Xenopus laevis oocytes: agonist-induced current. It counts as cell-based. Details: host or cells: Xenopus laevis oocytes injected with cRNA (pGEMHE vector, T7 transcript). An excerpt:
The cDNA encoding wild type, human ZACN was purchased from OpenBiosystems, and cloned into the pGEMHE vector in the T7 orientation. For cRNA synthesis, cDNA templates were PCR amplified using primers that cover the M13 forward and reverse regions and high fidelity Phusion DNA polymerase (New England Biolab, Ipswich, Mass., USA). PCR products were then purified and served as templates for cRNA synthesis. cRNAs were transcribed by T7 RNA polymerase (Promega, Madison, Wis., USA) using standard in vitro transcription protocols. After digestion of the DNA template by RNase-free DNase I, cRNAs were purified and resuspended in diethyl pyrocarbonate (DEPC)-treated water. cRNA integrity was examined on a 1% agarose gel, and cRNA concentration was determined by optical density measurements at 260 nm using an Eppendorf Biophotometer.
Oocytes were harvested from female Xenopus laevis (Xenopus I, Ann Arbor, Mich., USA), using the protocol “Xenopus Care and Use” approved by the Institutional Animal Care and Use Committee of the St. Joseph's Hospital and Medical Center. Stage VI oocytes were selected and incubated at 16° C. before injection. […]

From patent US11191743B2, “Modulators of zinc activated cation channel” (Dignity Health, priority 2016, dated 2021) come the findings set out here.

pEC50: −log10 of the molar value.

For `COc1cc(-c2ccc(-n3nc(-c4ccccc4)n[n+]3-c3ccc([N+](=O)[O-])cc3)c(OC)c2)ccc1-n1nc(-c2ccccc2)n[n+]1-c1ccc([N+](=O)[O-])cc1` [Nitro Blue Tetrazolium], the “EC50 of NBT relative to that of ZnCl2 (fold lower)” value is recorded as “approximately 100 fold”. The negative-log EC50 (pEC50) (usually the EC50 on a negative log10 scale, so that one unit is a factor of ten) (EC50 in activating ZACN, ZACN expressed in X. laevis oocytes) is 4.77.
